# Assay results as given in paper PMC6982966 (Molecules, 2019).
# Amino acid sequences for entries named in this document (tags omitted).
# UniProt P68400, whole entry: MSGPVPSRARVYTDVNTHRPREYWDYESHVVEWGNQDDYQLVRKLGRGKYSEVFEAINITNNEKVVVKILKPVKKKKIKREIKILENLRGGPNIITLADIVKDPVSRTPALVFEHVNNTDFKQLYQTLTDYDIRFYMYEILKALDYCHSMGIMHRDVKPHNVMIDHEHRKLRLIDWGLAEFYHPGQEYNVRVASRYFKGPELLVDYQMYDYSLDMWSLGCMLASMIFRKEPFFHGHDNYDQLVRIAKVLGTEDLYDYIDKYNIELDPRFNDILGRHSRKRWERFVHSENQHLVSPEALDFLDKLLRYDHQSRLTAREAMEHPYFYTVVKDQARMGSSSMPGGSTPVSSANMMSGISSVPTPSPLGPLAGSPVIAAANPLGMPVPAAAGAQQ
# Experiments:
# human CK2 holoenzyme [1] = biological target: T1, human CK2 holoenzyme (Homo sapiens, UniProt P68400); test: biochemical; set-up: made in house; host or cells: Escherichia coli; conditions: newly synthesized indeno[1,2-b]indoles
# human CK2 holoenzyme [2] = biological target: T1, human CK2 holoenzyme; conditions: recombinant human CK2; pIC50 = -logIC50; compounds published before; cited from earlier work
# [3] = Tested IC50, recombinant human CK2
# [4] = Tested pIC50, recombinant human CK2, pIC50 = -logIC50
smiles,measurement,setting,value
CC(C)n1c2c(c3c(O)cccc31)C(=O)c1c(C#N)cccc1-2 [5f],IC50,human CK2 holoenzyme [1]; [3],2930 nM
same,IC50,human CK2 holoenzyme [1]; [4],2930 nM
COc1ccc2c(c1)-c1c(c3c(O)cccc3n1C(C)C)C2=O [5h],IC50,human CK2 holoenzyme [1]; [3],480 nM
same,IC50,human CK2 holoenzyme [1]; [4],481 nM
Cc1cc(O)c2c3c(n(C(C)C)c2c1)-c1ccccc1C3=O [5j],Tested pIC50,human CK2 holoenzyme [2],5.8960
